The record followed here is PubChem BioAssay AID504444 (National Center for Advancing Translational Sciences (NCATS), 2011).

Each structure is given as a SMILES string. The entries are a selection whose mix differs from that of the whole data set. Inconclusive results are not listed. Where a call stands in place of a potency, no number is given. Calls of active or inactive are those of the source. The call rests on the fitted dose curve; in most records, active means well fitted inhibition curve with a large enough effect; inconclusive means small, poorly fitted or top-dose-only effect, or effect the other way; inactive means flat fitted curve, though single readings scatter.
Potency means the concentration at half of the fitted maximal effect.

This assay is described as follows: Nrf2 qHTS screen for inhibitors. Further: nearly all actives have a fitted effect of over 60% in size. To be noted: A549 ARE-Fluc reporter, luciferase luminescence, 18-24 h; series mostly up to 46 µM.
On to `CCN(CC)CCCOC(=O)C(O)(c1ccccc1)c1ccccc1`, for which the Potency result was “inactive”.
Take `COc1ccccc1OP(C)(=O)Nc1ccc(C)cc1` (stereo not given): the Potency result was “inactive”.
With `Cc1ccc(NP(C)(=O)Oc2ccccc2)c(C)c1` (stereo not given) the entry was “inactive”; with `CCOC(=O)c1ccc(NP(C)(=O)Oc2ccccc2)cc1` (stereo not given), “inactive”.
In the case of `Cc1cc(C)cc(OP(C)(N)=O)c1` (stereo not given), the Potency result is “inactive”.
With `COc1ccccc1OP(C)(=O)Nc1cc(Cl)ccc1C` (stereo not given) the entry was “inactive”.
As for `COc1ccc(OP(C)(=O)Nc2cccc(F)c2)cc1` (stereo not given), the Potency entry was “inactive”.
For the compound `O=[N+]([O-])c1cc([N+](=O)[O-])c(Nc2cccnc2)c([N+](=O)[O-])c1`, the Potency entry was “inactive”.
For the compound `O=[N+]([O-])c1ccc2c(c1)C=Nc1ccccc1O2`, the Potency entry was “inactive”.
As for `Cc1cccc(C)c1OP(C)(N)=O` (stereo not given), the entry is “inactive”.
Consider `CP(=O)(Nc1ccccc1Br)Oc1ccccc1` (stereo not given), for which the Potency entry is “inactive”.
With `COc1ccccc1OP(C)(=O)Nc1ccccc1` (stereo not given) the entry was “inactive”.
As to `O=[N+]([O-])c1cc([N+](=O)[O-])c(O)c([N+](=O)[O-])c1.c1ccc(Oc2ccncc2)cc1`, the Potency entry is “inactive”.
With `CCOC(=O)c1ccc(NP(C)(=O)Oc2ccc(OC)cc2)cc1` (stereo not given), the Potency result was “inactive”.
Regarding `CP(=O)(Nc1ccccn1)Oc1ccc(Cl)cc1` (stereo not given), the Potency result is “inactive”.
As for `Cc1cccc(C)c1OP(C)(=O)Nc1ccc(SC(F)(F)F)cc1` (stereo not given), the Potency result was “inactive”.
With `CP(=O)(Oc1ccccc1)OC(c1ccccc1)C(F)(F)F` (stereo not given) the entry was “inactive”.
As for `CP(=O)(NC(=O)Nc1ccccc1)Oc1ccccc1` (stereo not given), the entry is “inactive”.
On to `Cc1nc2ccc3ccccc3c2s1.O=[N+]([O-])c1cc([N+](=O)[O-])c(O)c([N+](=O)[O-])c1`, for which the Potency entry was “inactive”.
Turning to `O=[N+]([O-])c1cc([N+](=O)[O-])c(-n2nnc3ccccc32)c([N+](=O)[O-])c1`, the Potency entry is “inactive”.
With `CN1CCCCC1COC(=O)C1(O)c2ccccc2CCc2ccccc21` (stereo not given) the entry was “inactive”.
Take `COc1ccccc1OP(C)(=O)Nc1c(C)cccc1C` (stereo not given): the Potency entry is “inactive”.
As for `CC1=C2N=C(C=C3N=C(C(C)=C4[N-][C@@](C)([C@@H]5N=C1[C@](C)(CCC(=O)NC[C@@H](C)OP(=O)([O-])O[C@H]1[C@@H](O)[C@@H](n6cnc7cc(C)c(C)cc76)O[C@@H]1CO)[C@H]5CC(N)=O)[C@@](C)(CC(N)=O)[C@@H]4CCC(N)=O)[C@@](C)(CC(N)=O)[C@@H]3CCC(N)=O)C(C)(C)[C@@H]2CCC(N)=O.[C-]#N.[Co+3]`, the entry is “inactive”; as for `O=[N+]([O-])c1cc([N+](=O)[O-])c(Nc2nnnn2CCO)c([N+](=O)[O-])c1`, “inactive”.
With `CC1CCOC(=O)C=CC=CC(=O)OC2CC3OC4C5OC5(C)CCC4(COC(=O)C1O)C2(C)C31CO1` (stereo not given) the figure was active: 0.0164 µM; with `CC1=NCCc2c1[nH]c1ccccc21.O=[N+]([O-])c1cc([N+](=O)[O-])c(O)c([N+](=O)[O-])c1`, “inactive”.
With `Cc1ccc(C)c(NP(C)(=O)Oc2ccccc2)c1` (stereo not given), the Potency result is “inactive”.
`Cc1cc(C)cc(OP(C)(=O)Nc2ccccn2)c1` (stereo not given): the Potency entry was “inactive”.
With `CP(=O)(Nc1cccc(Br)c1)Oc1ccccc1` (stereo not given) the entry was “inactive”.
Take `CCOC(=O)c1ccc(NP(C)(=O)Oc2cc(C)cc(C)c2)cc1` (stereo not given): the Potency result was “inactive”.
With `Cc1cc(C)cc(OP(C)(=O)Nc2ccc(C)cc2C)c1` (stereo not given) the entry was “inactive”; with `CP(=O)(Nc1ccccc1F)Oc1ccccc1` (stereo not given), “inactive”.
With `CC(C)c1ccc(OP(C)(=O)Nc2ccc(SC(F)(F)F)cc2)cc1` (stereo not given) the figure was active: 18.4 µM; with `Cc1c([N+](=O)[O-])cc([N+](=O)[O-])c(Br)c1[N+](=O)[O-]`, “inactive”.
As for `CP(=O)(Nc1ccccc1)Oc1ccc(F)cc1` (stereo not given), the entry is “inactive”; as for `CCCCCOc1ccc(NP(C)(=O)Oc2ccc(Cl)cc2Cl)cc1` (stereo not given), “inactive”; as for `CCOC(=O)c1ccc(NP(C)(=O)Oc2ccc(F)cc2)cc1` (stereo not given), “inactive”.
For the compound `COc1ccc(OP(C)(=O)Nc2ccc(SC(F)(F)F)cc2)cc1` (stereo not given), the Potency entry was “inactive”.
With `O=[N+]([O-])c1ccc(OP2(=O)COCCO2)cc1` (stereo not given) the entry was “inactive”.
With `Cc1cc(-c2cccc3ccccc23)c(C)cn1.O=[N+]([O-])c1cc([N+](=O)[O-])c(O)c([N+](=O)[O-])c1` the entry was “inactive”; with `Cc1c(C(c2ccc3c(c2)OCO3)c2c(C)n(C)n(-c3ccccc3)c2=O)c(=O)n(-c2ccccc2)n1C.O=[N+]([O-])c1cc([N+](=O)[O-])c(O)c([N+](=O)[O-])c1`, “inactive”.
Take `CN(C)CCOC(=O)C(O)(c1ccccc1)C1CCCCC1` (stereo not given): the Potency result is “inactive”.
For the compound `COc1ccc(NP(C)(=O)Oc2ccccc2OC)cc1` (stereo not given), the Potency entry was “inactive”.
With `CP(=O)(Nc1ccc2c(c1)OCCO2)Oc1ccccc1` (stereo not given) the entry was “inactive”.
`CP(=O)(Nc1ccc(SC(F)(F)F)cc1)Oc1ccc(F)cc1` (stereo not given): the Potency result is “inactive”.
With `CCOP(C)(=S)SCC(=O)NC(C)(CC)C(=O)O` (stereo not given) the entry was “inactive”; with `COc1ccccc1OP(C)(=O)Nc1ccccc1Br` (stereo not given), “inactive”; with `CC(C)(C)c1ccc(OP(C)(=O)O)cc1`, “inactive”.
As for `CP(=O)(Nc1ccc(Cl)cc1)Oc1ccc(F)cc1` (stereo not given), the entry is “inactive”; as for `CN(C)C(=O)c1c([N+](=O)[O-])cc([N+](=O)[O-])cc1[N+](=O)[O-]`, “inactive”.
Regarding `CCN(CC)CC(O)COC(=O)C(O)(c1ccccc1)C1CCCCC1` (stereo not given), the Potency entry is “inactive”.
Take `COc1ccc(OP(C)(=O)Nc2ccc(Br)cc2)cc1` (stereo not given): the Potency entry is “inactive”.
As to `COc1ccccc1OP(C)(=O)Nc1c(C)n(C)n(-c2ccccc2)c1=O` (stereo not given), the Potency entry was “inactive”.
Regarding `O=C(OCCCN1CCCC1)C(O)(c1ccccc1)C1CCCCC1` (stereo not given), the Potency entry was “inactive”.
As to `CP(=O)(Oc1ccccc1)N1CCOC1=O` (stereo not given), the Potency entry is “inactive”.
As for `CCc1ccc(OP(C)(=O)Nc2cccnc2)cc1` (stereo not given), the entry is “inactive”.
Regarding `Nc1ccc2c(ccc3cccnc32)n1.O=[N+]([O-])c1cc([N+](=O)[O-])c(O)c([N+](=O)[O-])c1`, the Potency result is “inactive”.
As for `CCOC(=O)c1ccc(NP(C)(=O)Oc2ccc(Cl)cc2)cc1` (stereo not given), the entry is “inactive”.
As for `CP(=O)(Nc1ccc(Cl)cc1Cl)Oc1ccccc1` (stereo not given), the entry is “inactive”; as for `CP(=O)(OCCOc1ccccc1)OCCOc1ccccc1`, “inactive”.
As for `Cc1cc(C)cc(OP(C)(=O)Nc2cccc(C(F)(F)F)c2)c1` (stereo not given), the figure is active: 23.1 µM; as for `COc1ccccc1OP(C)(=O)Nc1ccc(C)c(C)c1` (stereo not given), “inactive”.
In the case of `COc1ccc(OP(C)(=O)Nc2ccccc2Br)cc1` (stereo not given), the Potency result was “inactive”.
As for `Cc1c(NP(C)(=O)Oc2ccc(C(C)C)cc2)c(=O)n(-c2ccccc2)n1C` (stereo not given), the entry is “inactive”.
In the case of `CP(=O)(Nc1ccccn1)Oc1ccccc1` (stereo not given), the Potency result was “inactive”.
As for `COc1ccccc1OP(C)(=O)Nc1ccc(C)cc1C` (stereo not given), the entry is “inactive”.
As for `CCc1ccc(OP(C)(=O)O)cc1`, the entry is “inactive”; as for `COc1ccccc1OP(C)(=O)Nc1ccc(Br)cc1` (stereo not given), “inactive”.
With `COc1ccc(OP(C)(=O)Nc2ccccn2)cc1` (stereo not given) the entry was “inactive”.
On to `CN(C)CCOC(=O)C(O)(c1ccccc1)C1CCCC1` (stereo not given), for which the Potency entry was “inactive”.
